Reference: ChEMBL document CHEMBL1127751, “Novel Asp32-replacement tetrapeptide analogues as potent and selective CCK-A agonists” (J Med Chem, 1994)

Test system: Cholecystokinin receptor type B (Cavia porcellus)
Experiment: Percent inhibition of specific [125I]Bolton-Hunter CCK-8 binding in guinea pig cortex at 10e-5 M
Conditions: 10e-6 M

inhibition [%] | SMILES
10 | Cc1ccccc1NC(=O)NCCCC[C@H](NC(=O)C(Cc1c[nH]c2ccccc12)NC(=O)OC(C)(C)C)C(=O)NCCCCC(=O)NC(Cc1ccccc1)C(N)=O (stereo not given in full)
10 | Cc1ccccc1NC(=O)NCCCC[C@H](NC(=O)C(Cc1c[nH]c2ccccc12)NC(=O)OC(C)(C)C)C(=O)NCCCCCC(=O)N(C)C(Cc1ccccc1)C(N)=O (stereo not given in full)
0 | Cc1ccccc1NC(=O)NCCCC[C@H](NC(=O)C(Cc1c[nH]c2ccccc12)NC(=O)OC(C)(C)C)C(=O)N(C)CC(=O)N(C)C(Cc1ccccc1)C(N)=O (stereo not given in full)
10 | Cc1ccccc1NC(=O)NCCCC[C@H](NC(=O)C(Cc1c[nH]c2ccccc12)NC(=O)OC(C)(C)C)C(=O)N(C)CCC(=O)N(C)C(Cc1ccccc1)C(N)=O (stereo not given in full)
6 | Cc1ccccc1NC(=O)NCCCC[C@H](NC(=O)C(Cc1c[nH]c2ccccc12)NC(=O)OC(C)(C)C)C(=O)NCCC(=O)NC(Cc1ccccc1)C(N)=O (stereo not given in full)
